# AlphaSeq binding of Ab-95 light chain variants to a spike HR2 peptide

Source: Engelhart et al. 2022 (doi:10.1038/s41597-022-01779-4), MIT Lincoln Laboratory and A-Alpha Bio; data file from the FLAb repository.

Antigen: PDVDLGDISGINAS, a 14-residue peptide of the SARS-CoV-2 spike HR2 region.

Each scFv is VH, a (GGGGS)3 linker, VL, as in the parent Ab-95, and differs from it in the CDRs of the light chain only.
VH: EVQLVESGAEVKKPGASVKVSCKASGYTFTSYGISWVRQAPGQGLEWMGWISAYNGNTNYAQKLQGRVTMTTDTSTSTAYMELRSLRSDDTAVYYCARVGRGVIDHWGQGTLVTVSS
VL: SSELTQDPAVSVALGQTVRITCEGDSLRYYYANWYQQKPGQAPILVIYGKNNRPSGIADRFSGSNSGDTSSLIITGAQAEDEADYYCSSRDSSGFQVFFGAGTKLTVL

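Variants in AAYL52 differ from the parent at up to three CDR positions; double and triple changes were sampled at random. Affinity was read by AlphaSeq, a pooled yeast mating assay with surface-displayed partners. After mating in shaken culture at 30 °C for 16 h, diploids were selected and their barcode pairs sequenced. Scores were corrected for input abundance and mapped to Kd with protein pairs of known affinity run in the same pool. There are three technical replicates.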

Variants are written as CDR1, CDR2 and CDR3 of the light chain (limits as in the source). Parent: EGDSLRYYYAN, GKNNRPS, SSRDSSGFQVF. This list gathers variants with a substitution at Y29 (VL, numbered from residue 1). Affinities are written as log10 Kd with Kd in nM; a lower number is a better binder. The mean shown is taken over the replicates in which the pair was detected. An entry "nd" has no value in the source: the pair was not observed among the diploids in that replicate. This suggests poor binding but is not conclusive. Background: pairings of library AAYL52 with three empty control strains gave a value in 28% of cases (median 3.91, 5th percentile 2.90). Values in that range, when seen in few replicates, are hard to tell from nonspecific mating. The control count says in how many pairings with the empty strains this scFv gave a signal.

- EGDSLRIYYAN / GKINRPS / QSRDSSGFQVF: 2.73, nd, nd (controls 2 of 9)
- EGDSLRAYYAN / GKVNRPS / SSRDSSGFQVA: 2.99, nd, nd (controls 1 of 9)
- EGDSLRWYYPN / GKDNRPS / SSRDSSGFQVF: 3.92, 3.96, 2.86 (mean 3.58; controls 1 of 9)
- EGDSLRHYYAN / GKQNRPQ / SSRDSSGFQVF: 2.47, 2.33, 2.29 (mean 2.36; controls 2 of 9)
- EGDSLRVYYAN / GKNNRPS / SFRDSSGFQVP: nd, 3.18, nd (controls 2 of 9)
- EGDSLRKYYAN / GKNNRPS / SSRDSSGFDVF: 3.05, 3.04, 3.13 (mean 3.08; controls 1 of 9)
- EGDSLRMYYAN / GKNNVPS / SSCDSSGFQVF: 3.61, 4.92, 3.69 (mean 4.07; controls 7 of 9)
- EGDVLRFYVAN / GKNNRPS / SSRDSSGFQVF: 4.04, 3.45, 2.82 (mean 3.43; controls 4 of 9)
- EGDSLRFYYAN / GKNNRPS / SHRRSSGFQVF: 3.79, 2.58, 2.93 (mean 3.10; controls 3 of 9)
- EGDSLRPYYAN / GKPNRPT / SSRDSSGFQVF: 3.77, nd, nd (controls 4 of 9)
- EGDSLRHYYAN / GKNNRPS / SSRDSSDFQVQ: 4.42, nd, nd (controls 1 of 9)
- EGDSIRRYMAN / GKNNRPS / SSRDSSGFQVF: 4.67, nd, 3.58 (mean 4.13; controls 5 of 9)
- EGDSLRQYYAA / GKNNRPS / SSRDSAGFQVF: 4.37, nd, nd (controls 1 of 9)
- EGDFLRHYYAN / GKNNRPS / SSRDSSGQQVF: 3.15, 3.62, 2.23 (mean 3.00; controls 3 of 9)
- EGDSLRPYYAN / GKNNRPS / SSRDSVGFQYF: 3.96, nd, nd (controls 0 of 9)
- EGDSARVYYAN / GKNNRPS / SSEDSSGFQVF: nd, nd, nd (controls 3 of 9)
- EGDSGRMYYAN / RKNNRPS / SSRDSSGFQVF: 4.90, 5.31, 3.26 (mean 4.49; controls 1 of 9)
- EGDSLRMYYAQ / GKNNRRS / SSRDSSGFQVF: 2.07, 1.36, 2.58 (mean 2.00; controls 0 of 9)
- EGDSLRNYYAN / GKNNRPS / SSRDSSGFHVV: 1.76, 1.98, 1.14 (mean 1.63; controls 0 of 9)
- EGDSLRINYAN / GKNNRPS / SSRDSSGLQVF: 1.84, 2.11, 1.90 (mean 1.95; controls 2 of 9)
- EGDSLRDYGAN / GKNNRPS / SSRDSSGFQVR: 2.19, 2.12, 1.69 (mean 2.00; controls 4 of 9)
- EYDSLRVYYAC / GKNNRPS / SSRDSSGFQVF: 4.29, 4.16, nd (mean 4.23; controls 3 of 9)
- EGDSLRMYYAN / GKNNRPS / SSRWSSGFQWF: 2.33, 2.81, 2.02 (mean 2.39; controls 2 of 9)
- DGDSLRDYYAN / GKNNRPS / SSRFSSGFQVF: 2.13, 2.07, 2.52 (mean 2.24; controls 4 of 9)
- EGDSLRNYYAN / GKNNRPS / SSRDSSGFQVF: 1.63, 1.34, 1.20 (mean 1.39; controls 2 of 9)
- EGDSLRQYYYN / GKNNRPS / SSRDMSGFQVF: 3.83, nd, nd (controls 2 of 9)
- EGDSLRRYYAN / GKNNRPS / SSRTSRGFQVF: 2.91, 3.06, 3.99 (mean 3.32; controls 5 of 9)
- EGDSLRNYYAN / GKNNRPS / SSEDSKGFQVF: 4.35, nd, nd (controls 2 of 9)
- EGDSLRMEYAN / GKNNRPS / GSRDSSGFQVF: 2.16, 2.10, 2.13 (mean 2.13; controls 1 of 9)
- EGDFLRRYEAN / GKNNRPS / SSRDSSGFQVF: 1.94, 1.85, 1.49 (mean 1.76; controls 1 of 9)
- EGDSLRTYYAN / GKNNRPS / SSRDFSGFQVF: 2.35, 2.16, 1.66 (mean 2.06; controls 6 of 9)
- EGDSFRQYYAT / GKNNRPS / SSRDSSGFQVF: 4.20, nd, nd (controls 0 of 9)
- EGDSLRQYYAN / GKNNRPS / CSRDSSGFQVF: 3.45, 2.71, 3.55 (mean 3.23; controls 1 of 9)
- EGDSLRWYYAN / GKNIRPS / ISRDSSGFQVF: 3.02, 2.77, 2.82 (mean 2.87; controls 3 of 9)
- RGDSLRQYYAN / GKNNRPS / SDRDSSGFQVF: 2.79, 3.01, 2.62 (mean 2.81; controls 1 of 9)
- EGVSLRQYYAN / GKNNRPS / SSRESSGFQVF: 3.87, 2.83, nd (mean 3.35; controls 4 of 9)
- EGHSLRGYYAN / GKNNRPS / SSRDSSGFQHF: 2.60, 3.05, 3.62 (mean 3.09; controls 2 of 9)
- EGDSLRWYYAN / GKNNRPF / SSRTSSGFQVF: 3.55, 4.42, 3.27 (mean 3.75; controls 3 of 9)

For reference, 4 entries of the list once more:

CDR-L1	CDR-L2	CDR-L3	replicates, log10 nM	log10 Kd (nM), mean	empty controls
RGDSLRQYYAN	GKNNRPS	SDRDSSGFQVF	2.79, 3.01, 2.62	2.81	1/9
EGDSLRMYYAN	GKNNRPS	SSRWSSGFQWF	2.33, 2.81, 2.02	2.39	2/9
EGDSLRINYAN	GKNNRPS	SSRDSSGLQVF	1.84, 2.11, 1.90	1.95	2/9
EGDSLRQYYAN	GKNNRPS	CSRDSSGFQVF	3.45, 2.71, 3.55	3.23	1/9

In this assay the parent's reference entry averaged 2.31; its copy inside this library read 2.25.